Consider one compound from patent US5733913A, “6-Aryl pyrido[2,3-d] pyrimidines and naphthyridines for inhibiting protein tyrosine kinase mediated cellular proliferation” (priority 1995, dated 1998).

The chains behind the UniProt entries cited, without tags or fusion partners. Residues count along the entry.
UniProt P11362, 478-767 limits assumed: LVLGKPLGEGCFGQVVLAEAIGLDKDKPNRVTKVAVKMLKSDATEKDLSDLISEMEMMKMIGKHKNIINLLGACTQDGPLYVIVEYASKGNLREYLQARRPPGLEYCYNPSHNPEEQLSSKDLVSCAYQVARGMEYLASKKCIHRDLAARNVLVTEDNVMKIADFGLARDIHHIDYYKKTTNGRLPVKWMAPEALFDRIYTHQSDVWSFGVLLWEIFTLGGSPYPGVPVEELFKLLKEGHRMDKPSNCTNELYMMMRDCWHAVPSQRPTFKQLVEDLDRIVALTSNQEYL

pIC50: −log10 of the molar value.

The experiment addresses T1, human FGF-1 (flg) receptor tyrosine kinase (Homo sapiens, UniProt P11362).
T1 construct: a fragment of DNA that codes for the intracellular tyrosine kinase domain; made in house; host or cells: Sf9 insect cells (baculovirus), cell lysate
In words: FGF receptor tyrosine kinase assay. In kind it is biochemical.

Usually pIC50 stands for the negative decadic logarithm of the IC50, by convention in mol/L. Read a high pIC50 as a small IC50. Turning to `COc1ccc(NC(=O)Nc2nc3nc(NCCCN4CCN(C)CC4)ncc3cc2-c2c(Cl)cccc2Cl)cc1` [Example 41, 1-{6-(2,6-Dichlorophenyl)-2-[3-(4-methyl-piperazin-1-yl)-propylamino]-pyrido[2,3-d]pyrimidin-7-yl}-3-(4-methoxy-phenyl)-urea], the negative-log IC50 (pIC50) is 6.86.
